Measurements as given in patent publication US9278947B2 (dated 2016).

Tested on: human platelets
Conditions: 100 μM compound, 15 min pre-incubation, 1.25 μM ADP + 50 μM serotonin, 5 min
[1] = FIG. 6 repeat, same donor (PBS control 91.8%)

| SMILES | platelet aggregation reached, % of the maximal possible aggregation (FIG. 5 (PBS control 85.1%)) [%] | platelet aggregation reached, % of the maximal possible aggregation [1] [%] |
| --- | --- | --- |
| CN(C)CCCC1(c2ccc(F)cc2)OCc2cc(C#N)ccc21 (stereo not shown) [Citalopram, 1-(3-Dimethylamino-propyl)-1-(4-fluoro-phenyl)-1,3-dihydro-isobenzofuran-5-carbonitrile] | 23.1 | 28.7 |
| C[N+](C)(C)CCCC1(c2ccc(F)cc2)OCc2cc(C#N)ccc21 (stereo not shown) [NMC] | 20.2 | 22.9 |

Where two headings read alike, the source gives them in different places.
